From US5854081A, “Stable expression of human A2B adenosine receptors, and assays employing the same” (The University of Patent Foundation, priority 1996, dated 1998)

Tested on: native-A1 receptors
Test: Effect of GTPγS on agonist radioligand binding to native-A1

Nc1nc2c(ncn2[C@@H]2O[C@H](COP(=O)(O)OP(=O)(O)OP(O)(O)=S)[C@@H](O)[C@H]2O)c(=O)[nH]1 [GTPγS]
reduction in number of high affinity agonist (^125 I-ABA) binding sites by GTPγS: large reduction
